Assays:
human alpha-thrombin = human alpha-thrombin (Homo sapiens, UniProt P00734); test: Kinetic analysis in an in vitro thrombin inhibition assay (Ki); settings: Table 1; Mean ± SD, n = 3; steady state velocities over 40 minutes; tested form: TFA
human α-thrombin = human α-thrombin (Homo sapiens, UniProt P00734); test: In vitro enzyme assay for specificity: Thrombin (fIIa) assay, IC50; settings: read-out: IC50 (nM) thrombin; Table 3; tested form: TFA

- Ki (human alpha-thrombin): 1.01 nM
- IC50 (human α-thrombin): 6.2 nM
Structure (SMILES): N=C(N)NCCC[C@@H](C=O)NC(=O)CN1CCC[C@H](NS(=O)(=O)Cc2ccccc2)C1=O

Source: patent US6034215A, “3-amino-2-oxo-1-piperidnercetic derivatives as enzyme inhibitors” (Corvas International, Inc., priority 1997, dated 2000)
